Our source for the GI50 and inhibition values is ChEMBL document CHEMBL5584349.

Calls of active or inactive are those of the source. The calls are words filed in the database; no cut-off is given here.

One assay concerns HeLa. Put plainly: cells. The note with it: Homo sapiens, 72 h.
Another assay relates to Jurkat. Description: cells. The note with it: Homo sapiens, 72 h.
Assay [1] concerns the target T1, Aurora kinase A (Mus musculus) (UniProt P97477).
T1 sequence (whole entry): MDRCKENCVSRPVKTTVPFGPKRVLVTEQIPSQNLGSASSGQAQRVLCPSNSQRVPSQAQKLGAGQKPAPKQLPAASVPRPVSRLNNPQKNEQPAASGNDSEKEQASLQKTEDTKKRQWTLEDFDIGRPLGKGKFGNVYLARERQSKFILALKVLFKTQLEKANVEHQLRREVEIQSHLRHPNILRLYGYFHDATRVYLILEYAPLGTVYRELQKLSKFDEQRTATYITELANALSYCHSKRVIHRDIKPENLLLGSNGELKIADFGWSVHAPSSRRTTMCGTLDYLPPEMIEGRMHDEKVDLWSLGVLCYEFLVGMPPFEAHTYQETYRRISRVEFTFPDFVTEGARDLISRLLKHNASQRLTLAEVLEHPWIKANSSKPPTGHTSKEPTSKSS
The note with it: NSG, dose 200.0 mg/kg, route po, time 8-12 hrs.

The target in assay [2] is T1, Aurora kinase A (Mus musculus). The note with it: NSG, dose 200.0 mg/kg, route po, time 8-12 hrs. This is another data set of the same source.
Assay [3] addresses T2, Aurora kinase A (Homo sapiens) (UniProt O14965).
T2 sequence (whole entry): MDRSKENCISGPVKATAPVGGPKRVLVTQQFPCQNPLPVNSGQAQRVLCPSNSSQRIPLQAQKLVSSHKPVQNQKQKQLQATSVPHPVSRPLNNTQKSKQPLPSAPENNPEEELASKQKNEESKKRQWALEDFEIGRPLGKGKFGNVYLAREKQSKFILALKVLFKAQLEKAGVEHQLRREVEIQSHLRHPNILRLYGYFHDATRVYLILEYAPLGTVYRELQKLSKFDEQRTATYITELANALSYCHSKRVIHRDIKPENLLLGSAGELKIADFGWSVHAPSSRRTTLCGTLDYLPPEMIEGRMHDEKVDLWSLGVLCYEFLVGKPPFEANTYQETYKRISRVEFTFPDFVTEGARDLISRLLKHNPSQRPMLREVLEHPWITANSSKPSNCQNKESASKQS
The note with it: Jurkat, dose 14.0 nM, time 8.0 hrs.

Assay [4] concerns the target T2, Aurora kinase A (Homo sapiens). The note with it: Jurkat, dose 7-35 nM, time 24.0 hrs.
Assay [5] has as its target T1, Aurora kinase A (Mus musculus). The note with it: NSG, dose 30.0 mg/kg, route po, time 8-12 hrs.

A word on the GI50: it is the concentration that inhibits growth by half. Higher therefore signals less potent growth inhibition. With `Cc1c(C(=O)NS(=O)(=O)N(C)C)cc(-c2ccc(Cl)cc2)c2cc[nH]c12`, the GI50 with HeLa was found to be 51.5 µM; in the assay on Jurkat, 27.4 µM.

As for `Cc1c(C(=O)O)cc(-c2ccc(Cl)c(C#N)c2)c2cc[nH]c12`, the GI50 in the assay with HeLa turned out to be 48.1 µM; in the assay on Jurkat, 10.8 µM.

Take `Cc1c(C(=O)NS(=O)(=O)N(C)C)cc(-c2ccc(Cl)c(Oc3ccccn3)c2)c2cc[nH]c12`: the GI50 came out at 21.8 µM with HeLa and 10.3 µM with Jurkat. Moreover, the inhibition result in assay [1] and in assay [2] was “Active” throughout.

Regarding `COc1cc(Nc2ncc3c(n2)-c2ccc(Cl)cc2C(c2c(F)cccc2OC)=NC3)ccc1C(=O)O`, the inhibition result in assay [3] and in assay [4] was “Active” throughout. Further, the inhibition entry in assay [5] was “inactive”.
